Columns and labels:
[1] = Ratio of drug level in blood to plasma in rat; format: ADME, organism-based
[2] = Ratio of drug level in blood to plasma in human; format: ADME, organism-based
Homo sapiens = species on record: Homo sapiens; experiment: Protein binding in human plasma as percentage unbound
[3] = molecular target: Metabotropic glutamate receptor 5 (Rattus norvegicus, UniProt P31424); experiment: Displacement of [3H]ABP688 from mGluR5 in rat brain membrane; format: cell membranes
[4] = molecular target: Metabotropic glutamate receptor 5 (Homo sapiens, UniProt P41594); experiment: Displacement of [3H]ABP688 from human mGluR5 receptor expressed in L (tk-) cells; format: cell-based

Chains of the proteins cited; added tags and fusions are not shown.
UniProt P31424, whole entry: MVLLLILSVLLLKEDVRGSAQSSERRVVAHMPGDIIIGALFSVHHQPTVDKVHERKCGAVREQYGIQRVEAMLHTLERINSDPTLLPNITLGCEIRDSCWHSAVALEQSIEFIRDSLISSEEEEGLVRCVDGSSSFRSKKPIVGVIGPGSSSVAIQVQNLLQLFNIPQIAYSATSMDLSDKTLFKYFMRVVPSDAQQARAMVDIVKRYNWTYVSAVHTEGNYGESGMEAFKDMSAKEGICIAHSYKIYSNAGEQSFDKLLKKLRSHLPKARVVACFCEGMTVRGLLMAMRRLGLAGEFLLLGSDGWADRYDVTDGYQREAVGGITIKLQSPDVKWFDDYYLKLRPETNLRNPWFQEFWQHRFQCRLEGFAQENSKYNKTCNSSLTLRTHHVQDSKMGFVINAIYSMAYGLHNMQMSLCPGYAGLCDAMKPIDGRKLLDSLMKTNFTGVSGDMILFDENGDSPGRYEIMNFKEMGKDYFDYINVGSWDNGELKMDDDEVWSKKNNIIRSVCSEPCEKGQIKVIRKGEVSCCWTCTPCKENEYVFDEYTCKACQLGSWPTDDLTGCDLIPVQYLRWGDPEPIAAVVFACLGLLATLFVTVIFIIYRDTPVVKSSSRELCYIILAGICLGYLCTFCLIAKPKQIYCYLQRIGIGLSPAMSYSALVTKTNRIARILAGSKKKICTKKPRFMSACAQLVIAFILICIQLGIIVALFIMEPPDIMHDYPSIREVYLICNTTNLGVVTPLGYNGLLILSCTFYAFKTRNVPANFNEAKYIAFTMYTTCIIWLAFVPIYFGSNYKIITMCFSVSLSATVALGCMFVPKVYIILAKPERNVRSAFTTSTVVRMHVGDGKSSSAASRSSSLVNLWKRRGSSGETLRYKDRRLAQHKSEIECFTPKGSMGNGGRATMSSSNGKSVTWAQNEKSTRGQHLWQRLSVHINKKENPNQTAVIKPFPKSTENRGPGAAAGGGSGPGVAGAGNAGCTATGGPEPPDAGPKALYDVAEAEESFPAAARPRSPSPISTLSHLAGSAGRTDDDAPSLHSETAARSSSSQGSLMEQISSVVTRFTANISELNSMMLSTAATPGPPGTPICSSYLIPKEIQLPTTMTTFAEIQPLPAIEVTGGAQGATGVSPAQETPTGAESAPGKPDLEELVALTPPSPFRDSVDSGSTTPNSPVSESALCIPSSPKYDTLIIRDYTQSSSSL
UniProt P41594, whole entry: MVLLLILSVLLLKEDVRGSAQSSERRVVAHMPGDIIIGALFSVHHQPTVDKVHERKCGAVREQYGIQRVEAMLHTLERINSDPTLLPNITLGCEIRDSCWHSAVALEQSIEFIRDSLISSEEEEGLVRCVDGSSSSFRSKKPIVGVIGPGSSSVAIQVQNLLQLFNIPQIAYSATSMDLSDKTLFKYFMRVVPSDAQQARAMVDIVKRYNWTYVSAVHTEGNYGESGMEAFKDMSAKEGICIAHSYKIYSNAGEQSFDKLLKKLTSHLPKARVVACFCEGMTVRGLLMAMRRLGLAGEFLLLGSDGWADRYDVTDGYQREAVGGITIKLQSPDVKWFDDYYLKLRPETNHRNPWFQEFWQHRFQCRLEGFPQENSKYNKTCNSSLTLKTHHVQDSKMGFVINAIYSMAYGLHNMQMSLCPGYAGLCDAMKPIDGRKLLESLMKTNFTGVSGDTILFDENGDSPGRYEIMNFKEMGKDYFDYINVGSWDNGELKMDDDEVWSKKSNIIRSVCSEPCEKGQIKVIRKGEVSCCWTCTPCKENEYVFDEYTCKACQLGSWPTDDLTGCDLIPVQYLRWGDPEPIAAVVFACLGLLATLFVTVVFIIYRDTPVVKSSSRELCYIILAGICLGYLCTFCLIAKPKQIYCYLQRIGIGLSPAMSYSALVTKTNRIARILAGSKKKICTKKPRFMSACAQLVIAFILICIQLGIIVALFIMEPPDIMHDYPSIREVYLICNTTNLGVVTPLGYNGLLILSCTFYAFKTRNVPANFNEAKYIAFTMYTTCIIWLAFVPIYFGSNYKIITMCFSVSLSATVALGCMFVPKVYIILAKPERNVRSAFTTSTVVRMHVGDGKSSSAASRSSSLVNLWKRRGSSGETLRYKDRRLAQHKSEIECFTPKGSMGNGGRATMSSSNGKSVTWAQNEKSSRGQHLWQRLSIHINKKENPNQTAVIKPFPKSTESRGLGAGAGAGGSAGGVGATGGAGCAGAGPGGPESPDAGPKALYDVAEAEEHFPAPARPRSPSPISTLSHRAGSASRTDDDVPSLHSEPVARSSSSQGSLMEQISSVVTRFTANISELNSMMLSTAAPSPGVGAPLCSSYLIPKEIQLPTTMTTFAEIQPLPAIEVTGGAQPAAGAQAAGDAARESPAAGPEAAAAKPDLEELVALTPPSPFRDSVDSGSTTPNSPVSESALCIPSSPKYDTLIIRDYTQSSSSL

## [3H]C([3H])([3H])O/N=C1/C=C(C#Cc2cccc(C)n2)CCC1
[1]
  blood plasma ratio: 0.74
[2]
  blood plasma ratio: 0.57
Homo sapiens
  fraction unbound: 0.044

## Cc1cccc(C#Cc2ccccc2)n1
[3]
  Ki: 19 nM
[4]
  Ki: 20 nM
